Experimental data taken from paper PMC5384220, “Highly selective inhibition of histone demethylases by de novo macrocyclic peptides” (Nature Communications, 2017).

Assays:
[1] = target: T1, FLAG-KDM4A1-1,064 (Homo sapiens, UniProt O75164); experiment: CETSA, FLAG-KDM4A in U2OS cells; format: cell-based; conditions: read-out: ITDRF CETSA EC50, FLAG-KDM4A stabilization, 55 °C, 20 h dosing
T1 construct: expressed in transfected cells; host or cells: U2OS
T1 sequence (O75164 1-1064): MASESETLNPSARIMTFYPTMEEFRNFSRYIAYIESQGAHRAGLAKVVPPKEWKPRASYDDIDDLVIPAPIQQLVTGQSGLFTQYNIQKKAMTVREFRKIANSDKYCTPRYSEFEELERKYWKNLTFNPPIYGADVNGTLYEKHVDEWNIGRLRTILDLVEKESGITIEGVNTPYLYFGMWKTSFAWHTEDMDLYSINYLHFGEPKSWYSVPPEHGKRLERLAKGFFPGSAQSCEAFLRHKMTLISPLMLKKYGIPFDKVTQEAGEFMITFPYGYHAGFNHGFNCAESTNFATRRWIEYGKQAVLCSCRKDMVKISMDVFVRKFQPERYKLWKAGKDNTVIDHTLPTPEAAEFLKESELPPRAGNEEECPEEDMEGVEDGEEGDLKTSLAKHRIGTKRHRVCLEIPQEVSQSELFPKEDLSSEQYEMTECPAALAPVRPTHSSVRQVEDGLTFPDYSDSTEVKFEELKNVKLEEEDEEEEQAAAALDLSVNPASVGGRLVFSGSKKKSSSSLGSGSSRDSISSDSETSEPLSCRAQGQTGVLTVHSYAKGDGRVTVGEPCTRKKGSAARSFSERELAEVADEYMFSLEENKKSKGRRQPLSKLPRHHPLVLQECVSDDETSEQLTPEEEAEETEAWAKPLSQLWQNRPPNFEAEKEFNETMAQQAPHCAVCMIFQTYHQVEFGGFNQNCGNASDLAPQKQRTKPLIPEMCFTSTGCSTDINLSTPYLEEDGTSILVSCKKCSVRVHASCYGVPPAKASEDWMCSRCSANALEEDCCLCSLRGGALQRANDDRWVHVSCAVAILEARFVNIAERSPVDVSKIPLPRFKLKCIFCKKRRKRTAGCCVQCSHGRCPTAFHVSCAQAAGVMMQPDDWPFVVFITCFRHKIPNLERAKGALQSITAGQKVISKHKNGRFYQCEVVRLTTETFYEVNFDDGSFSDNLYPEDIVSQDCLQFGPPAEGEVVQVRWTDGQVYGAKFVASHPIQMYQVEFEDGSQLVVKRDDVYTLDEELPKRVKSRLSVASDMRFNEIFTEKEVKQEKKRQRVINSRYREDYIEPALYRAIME
Protocol: Control cells were dosed only with DMSO.

[2] = target: T2, His-KDM4A1-359 (Homo sapiens, UniProt O75164); experiment: Formaldehyde dehydrogenase coupled KDM assay (mode of inhibition); format: biochemical; conditions: FDH assay; 0.5 µM KDM4A; H3(1-15)K9me3 substrate; mixed-model fit
T2 construct: using 0.5 μM His-KDM4A1–359; made in house
T2 sequence (O75164 1-359): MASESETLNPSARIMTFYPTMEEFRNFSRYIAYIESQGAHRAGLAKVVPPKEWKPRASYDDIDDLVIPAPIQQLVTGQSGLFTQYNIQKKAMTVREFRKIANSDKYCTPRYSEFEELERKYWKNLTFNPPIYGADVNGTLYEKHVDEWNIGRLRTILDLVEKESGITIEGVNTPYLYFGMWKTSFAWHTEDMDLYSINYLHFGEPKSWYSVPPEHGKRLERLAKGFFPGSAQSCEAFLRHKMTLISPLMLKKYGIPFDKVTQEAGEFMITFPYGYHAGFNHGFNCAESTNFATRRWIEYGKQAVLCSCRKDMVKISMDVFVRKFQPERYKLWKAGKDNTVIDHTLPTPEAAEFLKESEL

[3] = target: T3, His-KDM4A1-359-Bio (Homo sapiens, UniProt O75164); experiment: Biolayer interferometry binding to KDM4A
T3 construct: KDM4A protein (residues 1-359) was cloned into the pNIC-Bio3 plasmid, which incorporates a C-terminal AviTag; made in house; host or cells: E. coli BL21(DE3)Rosetta co-transfected with pCDF-BirA
T3 sequence (O75164 1-359): T2 sequence (O75164 1-359)

Row | Substance | EC50 [1] | Ki [2] | Kd [3]
1 | DY(meV)YNTRSDAWRW(4FF)P(meC) [CP2.3] | < 100 nM | – | –
2 | DYVYNTRSGWRWYTC [CP2] | ~1000 nM | 180 nM | –
3 | LYLKSRRSGLTWIPC [CP4] | – | – | 36 nM
4 | LYSKYTQSGVRWVC [CP5] | – | – | 173 nM
